Like-named read-outs stand apart in the source and are kept apart here.
Experiments:
[1] = tested on: human red blood cells (hRBCs); test: Hemolysis of human red blood cells; details: for HC50: human red blood cells, 1 h, 37 °C
[2] = Conductometry, critical association (CAC); details: H2O, 25 °C, break point of conductivity vs RA concentration
[3] = tested on: WI38 human embryonic lung cell line; test: Cytotoxicity, Cell Viability BioApp (Cytell), WI38 cells
[4] = tested on: Human erythrocytes of blood groups II and IV; test: Hemagglutination test (plate wells, bright-field microscopy)
[5] = tested on: Chang liver human liver cell line; test: Cytotoxicity, Cell Viability BioApp (Cytell), Chang liver cells; details: read-out: IC50 Chang liver
[6] = read-out: IC50 WI38, mean ± SD, triplicate
[7] = Chang liver cell line, mean ± SD, triplicate

| Compound | hemolysis ([1]; at 220 μM) [%] | HC50 [1] [µM] | critical association constant (CAC) [2] [mM] | IC50 [3, 6] [µM] | erythrocyte effect, bright-field microscopy ([4]; at 25.5 μM) | erythrocyte effect, bright-field microscopy ([4]; at 220 μM) | IC50 [5, 7] [µM] | IC50 ([3]; read-out: IC50 WI38) [µM] | IC50 ([5]; Chang liver human liver cell line) [µM] | hemolysis ([1]; at the highest concentration of 825 μM) | agglutination ([4]; concentration range 13–1650 μM) |
| --- | --- | --- | --- | --- | --- | --- | --- | --- | --- | --- | --- |
| OCCCC1c2cc(c(O)c(CNCCc3c[nH]cn3)c2O)C(CCCO)c2cc(c(O)c(CNCCc3c[nH]cn3)c2O)C(CCCO)c2cc(c(O)c(CNCCc3c[nH]cn3)c2O)C(CCCO)c2cc1c(O)c(CNCCc1c[nH]cn1)c2O (stereo not drawn) | 100 | 177 | 0.34 | > 220 | no agglutination and hemolysis | hemolysis | > 220 |  |  |  |  |
| O=C(O)COc1cc(OCC(=O)O)c2cc1C(CCCO)c1cc(c(OCC(=O)O)cc1OCC(=O)O)C(CCCO)c1cc(c(OCC(=O)O)cc1OCC(=O)O)C(CCCO)c1cc(c(OCC(=O)O)cc1OCC(=O)O)C2CCCO (stereo not drawn) |  |  |  | 479 |  |  | 571 | 570 | 480 |  |  |
| O=C([O-])COc1cc(OCC(=O)[O-])c2cc1C(CCCO)c1cc(c(OCC(=O)[O-])cc1OCC(=O)[O-])C(CCCO)c1cc(c(OCC(=O)[O-])cc1OCC(=O)[O-])C(CCCO)c1cc(c(OCC(=O)[O-])cc1OCC(=O)[O-])C2CCCO.[Na+].[Na+].[Na+].[Na+].[Na+].[Na+].[Na+].[Na+] (stereo not drawn) |  | >528 | 0.26 |  |  |  |  |  |  | did not cause hemolysis | did not induce agglutination |

— article PMC11729679, “A nanocarrier containing carboxylic and histamine groups with dual action: acetylcholine hydrolysis and antidote atropine delivery” (2025)
